High-throughput results (PubChem BioAssay)
Compounds with a hit are over-represented: about 1.4% of the library has one in this group of screens.
KCNH2 WT inh: qHTS for Inhibitors of KCHN2 3.1: Wildtype qHTS; Voltage-gated inwardly rectifying potassium channel KCNH2 (Homo sapiens), Q12809; U2OS, BacMam KCNH2, thallium flux FluxOr; active compounds read low; activity change, % at 1.84 µM; 0.37% of 340,000 active;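 active = maximum activity change below -70%; inconclusive = maximum activity change between -70% and -50%; inactive = maximum activity change above -50%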
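U2OS cells transduced with wild-type KCNH2 virus are loaded with FluxOr dye for 45 min, and thallium flux is measured in kinetic reads before and after stimulation buffer. Rate constants are normalized to DMSO controls.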
KCNH2 3.1 block: qHTS for Inhibitors of KCHN2 3.1: Mutant qHTS; activity change, % (tested at about 1.8 µM); AID 720553, 2013; 0.95% of 340,000 active; Potassium voltage-gated channel subfamily H member 2, brain isoform KCNH2 3.1 (human); U2OS KCNH2 3.1, thallium flux FluxOr; active compounds read low;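 active = maximum activity change below -70%; inconclusive = maximum activity change from -70% to -50%; inactive = maximum activity change above -50%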;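 note: thallium influx rate constant from kinetic fluorescence after stimulation buffer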
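Virally transduced U2OS (3.1 isoform, 4 h infection in dark at RT) → overnight 37 C → FluxOr + Red40 in HBSS/HEPES, 45 min → stimulation buffer, 2 min kinetic read → rate constant vs DMSO controls.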
Rango complex inh: qHTS Assay for Inhibitors of Rango (Ran-regulated importin-beta cargo) - Importin beta complex formation; Importin subunit beta-1 (Homo sapiens), Q14974; Rango CFP/YFP FRET sensor + importin beta, 45 min; Potency, µM (top dose mostly 92.2 µM); 0.031% of 340,000 active; AID 540263, 2011; note: nearly all actives have a fitted effect of over 15% in size
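FRET biosensor (snurportin 1 IBB flanked by EYFP and cerulean), 50 nM, with compound 5 min, then 0.125 microM importin beta in PBS, 1 mM DTT, 0.02% Tween-20, 0.1% BSA. CFP/YFP ratio read after 45 min at room temperature; pre-read flags interference.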
CCT chaperon mod: High-Throughput Screening for Modulators of Cytosolic Chaperonin Activity | purified chaperonin ATPase assay, HTRF ADP detection, 30 min | activity change, % (no concentration beside the values), hits read low | 0.3% of 360,000 active | AID 651819, 2012; in the data active = activity change below about -30%
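ATPase activity: ADP formed was measured by HTRF Transcreener (665/615 nm ratio) after 30 min at 37 deg C with 10 uM ATP. Compounds screened at one 76 uM concentration against 40 or 20 nM TRiC in Tris pH 7.4/KCl/MgCl2/DTT buffer.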
Rango dissoc inh: qHTS Assay for Inhibitors of RanGTP induced Rango (Ran-regulated importin-beta cargo) - Importin beta complex dissociation; Snurportin-1 (Homo sapiens) + GTP-binding nuclear protein Ran (Homo sapiens) + Importin …; Biochemical FRET Rango-importin beta, RanGTP-induced dissociation; Potency, µM (doses to about 46.1 µM); 0.071% of 340,000 active; AID 540253, 2011; note: nearly all actives have a fitted effect of over 45% in size
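FRET read at 45 min, room temperature: inhibitors block the CFP/YFP signal rise when RanGTP (0.6 uM Ran, 2 mM GTP, 0.2 uM RCC1) frees Rango (0.1 uM) from importin beta (0.25 uM). Pre-read after 5 min compound exposure flags interference.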
Mm-Cpn inhibitor: Inhibitors of TCP-1 ring complex (TRiC) of Methanococcus maripaludis (MmCpn): qHTS; Chaperonin Mm-Cpn (Methanococcus maripaludis); purified Mm-Cpn ATPase, ADP Transcreener TR-FRET; Potency, µM (top dose mostly 76.9 µM), hits mostly inhibitors; 0.031% of 330,000 active; active = well fitted inhibition curve with a large enough effect; inconclusive = small, poorly fitted or top-dose-only effect; note: nearly all actives have a fitted effect of over 80% in size
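Purified archaeal Mm-CPN (25nM final) preincubated 10 min at 37degC with compound, then 10uM ATP for 30 min at 37degC; ADP measured by HTRF Transcreener TR-FRET; buffer 30 mM TRIS pH 7.4, 100mM KCl, 5mM MgCl2, 1mM DTT.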
Large screens that a line does not name were inactive. Unless noted, calls come from the whole dose curve.

Chains of the proteins cited; added tags and fusions are not shown.
Importin subunit beta-1 (Homo sapiens), Q14974, UniProt Q14974, whole entry, looked up: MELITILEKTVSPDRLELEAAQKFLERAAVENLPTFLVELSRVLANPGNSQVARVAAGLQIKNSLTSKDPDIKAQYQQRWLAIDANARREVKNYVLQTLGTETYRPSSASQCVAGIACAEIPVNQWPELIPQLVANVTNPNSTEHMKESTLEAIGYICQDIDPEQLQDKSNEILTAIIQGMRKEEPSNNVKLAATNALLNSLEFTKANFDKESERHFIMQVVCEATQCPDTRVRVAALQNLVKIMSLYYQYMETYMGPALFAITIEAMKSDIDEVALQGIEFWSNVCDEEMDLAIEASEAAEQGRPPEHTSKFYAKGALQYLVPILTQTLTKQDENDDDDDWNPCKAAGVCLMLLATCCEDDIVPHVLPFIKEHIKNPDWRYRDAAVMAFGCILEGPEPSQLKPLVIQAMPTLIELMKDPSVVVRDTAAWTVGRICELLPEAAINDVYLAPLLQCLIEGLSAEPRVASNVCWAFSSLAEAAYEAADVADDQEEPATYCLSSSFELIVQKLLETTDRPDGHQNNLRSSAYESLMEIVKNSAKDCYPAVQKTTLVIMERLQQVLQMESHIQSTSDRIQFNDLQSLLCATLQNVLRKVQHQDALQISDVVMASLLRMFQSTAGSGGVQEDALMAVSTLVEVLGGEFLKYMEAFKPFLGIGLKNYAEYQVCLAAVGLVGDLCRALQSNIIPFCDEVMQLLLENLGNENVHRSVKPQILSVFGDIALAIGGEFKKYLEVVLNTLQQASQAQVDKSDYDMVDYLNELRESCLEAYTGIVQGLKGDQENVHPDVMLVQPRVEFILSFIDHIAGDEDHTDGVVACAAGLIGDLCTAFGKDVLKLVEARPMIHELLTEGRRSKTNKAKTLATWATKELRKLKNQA

O=C(Nc1cccc(Cl)c1)c1nc[nH]c1C(=O)Nc1ccccc1F	KCNH2 WT inh -71 (no result: Rango complex inh, Rango dissoc inh, Mm-Cpn inhibitor)
O=C(Nc1ccc(Cl)cc1)c1nc[nH]c1C(=O)Nc1ccccc1F	none (no result: Rango complex inh, Rango dissoc inh, Mm-Cpn inhibitor)
COCCn1c(SCC(=O)Nc2ccc(Cl)c(S(=O)(=O)N(C)C)c2)nc2ccccc21	KCNH2 WT inh -118
CCOc1cc(OCC)cc(C(=O)N2CCC[C@H]2C(=O)N2CCC[C@H]2C(=O)NCc2ccccn2)c1	none (no result: KCNH2 WT inh, KCNH2 3.1 block, Rango complex inh, Rango dissoc inh, Mm-Cpn inhibitor)
Cc1cc(C)c(O)c(-c2n[nH]c3c2C(c2cccc(O)c2)N(Cc2ccco2)C3=O)c1 (centres undefined)	KCNH2 WT inh -91
CCOC(=O)C(=Cc1ccc2c(c1)OCO2)c1ccccc1	none (no result: Mm-Cpn inhibitor)
CCCCCCCCNS(=O)(=O)CCNCCc1ccccc1	Rango complex inh 73µM (no result: Mm-Cpn inhibitor)
CO/N=C/c1cccn1-c1nccc(OC)c1C#N	KCNH2 WT inh -196, KCNH2 3.1 block -190
O=C(Nc1ccncc1)c1cn(-c2ccccc2)nc1-c1cccs1	none
CC(NC(=O)COC(=O)c1cn(-c2ccccc2)nc1-c1cccs1)c1ccccc1 (centres undefined)	Mm-Cpn inhibitor 50µM
COc1ccc(C)cc1S(=O)(=O)N1c2ccc(C)cc2C2CN(C)CCC21 (centres undefined)	none
O=C1CCC(C(=O)OCC(=O)Nc2ccc(Cl)cc2C(F)(F)F)=NN1	none
Cc1nc(N)[nH]c(=O)c1CCCNc1ccc([N+](=O)[O-])cc1	KCNH2 3.1 block -119, Rango complex inh inconclusive (no result: Mm-Cpn inhibitor)
Cc1nc(N)[nH]c(=O)c1CCCNc1ccc(CCC2(CCl)OCCO2)cc1	none (no result: Mm-Cpn inhibitor)
CCCOc1c(Br)cc(C(=O)OCC(=O)NC(=O)c2cccn2C)cc1OC	CCT chaperon mod -46
CCOc1ccc(C(=O)NC(=S)N2CCN(c3ccc(C(F)(F)F)cc3[N+](=O)[O-])CC2)cc1	KCNH2 WT inh inconclusive, KCNH2 3.1 block -70
COc1ccc(CN2CCCC(C(=O)c3ccc(SC)cc3)C2)cc1Cn1cccn1 (centres undefined)	KCNH2 WT inh -96, KCNH2 3.1 block -82
COc1ccc(C(=O)C2CCCN(Cc3cn(C)nc3-c3ccccc3)C2)cc1F (centres undefined)	KCNH2 3.1 block -71
Cc1cc2c(c(=O)n1Cc1ccccc1)C1O[C@](c3ccsc3)(Cc3ccccc31)O2	none (no result: KCNH2 WT inh, KCNH2 3.1 block, Rango complex inh, CCT chaperon mod, Rango dissoc inh)
CCOc1ccc(-n2c(=S)sc3c(=O)[nH]c(SCC(=O)C(C)(C)C)nc32)cc1	none
Cc1ccc(N(C(C)C(=O)Nc2cc(Cl)ccc2Oc2ccccc2)S(C)(=O)=O)cc1 (centres undefined)	KCNH2 3.1 block -72
Cc1nc([N+](=O)[O-])c(C(=O)OCc2ccccc2C#N)n1C	none
S=c1[nH]nc(-c2cccnc2)n1/N=C/c1ccc(Br)s1	KCNH2 3.1 block -99
Cc1cc(=O)c(C(=O)O)cn1Nc1ccc(Cl)cc1	none
Cc1cc(=O)c(C(=O)O)cn1Nc1ccc(F)cc1	KCNH2 3.1 block -84
COC(=O)[C@@H]1C(c2c(OC)cc(OC)cc2OC)=NO[C@H]1C(=O)OC	none
COCCn1c(-c2ccc(-c3ccccc3Cl)o2)nc2c1c(=O)[nH]c(=O)n2CC(C)C	Rango complex inh inconclusive, Rango dissoc inh 6.5µM
COc1ccc(-n2nc(C(=O)NCC(=O)NC(C)C)c3ccccc3c2=O)c(OC)c1	none
COc1ccc(NC(=O)CNC(=O)c2nn(-c3ccc(OC)cc3OC)c(=O)c3ccccc23)c(OC)c1	CCT chaperon mod -56
COc1ccc(/C=C2\Sc3ccc(C(=O)NCC4CCCO4)cc3N(C)C2=O)cc1 (centres undefined)	none
Cn1c(N/N=C/c2cccs2)cc(=O)n(C)c1=O	none
Fc1c(F)c(C(F)(F)F)c(F)c(F)c1N/N=C\c1cccs1	CCT chaperon mod -37
O=C(Cn1ncn2c(cc3sccc32)c1=O)NC1CCCC1	KCNH2 3.1 block -77
CCn1c(=O)c2sccc2n(CC(=O)NC2CCCC2)c1=O	none
FC(F)(F)COc1ccc(-c2nnc(SCc3ccccc3)o2)cn1	none
O=C(NC(=S)N(CCc1ccccc1)CCc1ccccc1)c1ccco1	KCNH2 WT inh -123
CC(CCc1ccccc1)NC(=S)NC(=O)c1ccco1 (centres undefined)	none
OCCCNc1ncnc2c1ncn2[C@H]1CN(Cc2ccc(-c3ccccc3)cc2)C[C@@H](CO)O1	none (no result: KCNH2 WT inh, KCNH2 3.1 block, Rango complex inh, Rango dissoc inh, Mm-Cpn inhibitor)
CCOC(=O)c1c(-c2ccc(C)cc2)csc1NC(=O)c1cc2ccccc2oc1=O	KCNH2 3.1 block -122
CCN(CC(=O)Nc1c(F)cccc1F)C(=O)c1cc(C)nc2ccccc12	KCNH2 WT inh -72, Rango complex inh inconclusive
Cc1cccc(NC(=O)c2cc3ccccc3oc2=O)c1	Rango complex inh inconclusive, Rango dissoc inh 12µM
CCN(CC(=O)Nc1c(F)cccc1F)C(=O)c1ccccc1F	none
CN(C)S(=O)(=O)c1cccc(NC(=O)c2cc(-c3cccs3)nc3ccccc23)c1	CCT chaperon mod -32, Mm-Cpn inhibitor inconclusive
CCC(Oc1ccccc1)C(=O)O/N=C(\N)c1ccc(OC)c(OC)c1 (centres undefined)	none
Cc1ccc(CNC(=O)Nc2cccs2)cc1	Rango complex inh inconclusive, Rango dissoc inh inconclusive
CC(=O)Nc1cccc(-c2cn3ccccc3n2)c1	none
Cc1cccc(NC(=O)c2cc(C)nc3ccccc23)c1	Rango complex inh inconclusive, CCT chaperon mod -39
Cc1ccc(NC(=O)c2cc(C)nc3ccccc23)cc1	none
O=C(Nc1cccc(-c2cn3ccccc3n2)c1)c1cc2ccccc2oc1=O	CCT chaperon mod -61
COC(=O)c1cc(S(=O)(=O)N2CCC(c3cc(OC)ccc3OC)C2)c[nH]1 (centres undefined)	Rango dissoc inh inconclusive
COc1ccc(NC(=O)N(C)[C@H]2C[C@H]3c4[nH]c5ccccc5c4CCN3C[C@H]2[C@H](C)O)cc1	none (no result: Rango complex inh, Rango dissoc inh, Mm-Cpn inhibitor)
COc1ccc(CN(C)[C@H]2C[C@H]3c4[nH]c5ccccc5c4CCN3C[C@H]2[C@H](C)O)cc1	KCNH2 3.1 block -81 (no result: Rango complex inh, Rango dissoc inh, Mm-Cpn inhibitor)
COc1cc(F)ccc1S(=O)(=O)N1CCN(c2ccccc2)CC1	none
